{"source": "patent EP0866075B1", "about": "“Method to treat microbial infections by uncoupling of phosphotransferase system and appropriate agents therefor” (Arpida AG,, priority 1997, dated 1998)", "target": "T1, enzyme I (Escherichia coli, UniProt P08839)", "T1 construct": "3 µM each of purified HPr and enzyme I (Mao et al., 1995); made in house", "assay": "biochemical", "parameters": "species or system E. coli", "details": "peptides from support-based combinatorial libraries; 30 min at 37°C, HPr rate limiting; read-out: inhibition IC50", "description": "Fig. 2. Assays for the screening, selection and characterization of inhibitory compounds from combinatorial libraries. Reaction products that can be determined experimentally are boxed. The inhibitory compound X can be in soluble form, immobilized on a filamentous phage, or bound to a microtiter well. The transporter for GlcNAc (shaded in grey) contains the IIA, IIB and IIC functional units as domains of a single polypeptide chain. • (a) Binding of Enzyme I to immobilized ligands, e.g. filamentous phages from a phage display library or synthetic peptides from a combinatorial peptide library was detected using [^1251]-Enzyme I and autoradiography. • (b) Phosphorylation by Enzyme I. To identify peptides and filamentous phages displaying a peptide which can be phosphorylated by Enzyme 1, support based peptide libraries and immobilized peptide-displaying phages were incubated over night with enzyme I in the presence of [^32P]phosphoenolpyruvate, and the phosphorylated species were detected with a PhosphorImager. […] The assay can be performed in microtiter plates and quantitated with a microplate photoreader. […] The enzyme I-specific phosphatase activity of soluble compounds can be detected from the pyruvate burst. The rate of pyruvate formation is monitored with lactate dehydrogenase and NADH. […]", "data": [{"smiles": "N=C(N)NCCC[C@H](NC(=O)[C@H](CCCCN)NC(=O)[C@H](Cc1c[nH]cn1)NC(=O)[C@@H](N)Cc1c[nH]c2ccccc12)C(=O)O", "note": "[compound 12, W H KR]", "values": [{"measurement": "IC50", "value": 4.9, "unit": "mM"}]}, {"smiles": "CC(=O)N[C@@H](Cc1c[nH]c2ccccc12)C(=O)N[C@@H](Cc1c[nH]cn1)C(=O)N[C@@H](CCCCN)C(=O)N[C@@H](CCCNC(=N)N)C(=O)O", "note": "[compound 13, Ac-WH KR]", "values": [{"measurement": "IC50", "value": 5.8, "unit": "mM"}]}]}
